# Binding of CDR-mutated scFvs to a peptide of the spike HR2 region

Reference: Li et al. 2023, doi:10.1038/s41467-023-39022-2. File: FLAb, binding data.

Target: peptide PDVDLGDISGINAS, taken from heptad repeat 2 (HR2) of SARS-CoV-2 spike.

Parent scFv Ab-14: VH joined to VL by a 15-residue (Gly4Ser)3 linker. Changes lie in the heavy chain CDRs alone.
VH: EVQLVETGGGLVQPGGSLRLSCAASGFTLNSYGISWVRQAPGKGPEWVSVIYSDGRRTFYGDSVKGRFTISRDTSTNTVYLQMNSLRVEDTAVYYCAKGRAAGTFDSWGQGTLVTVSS
VL: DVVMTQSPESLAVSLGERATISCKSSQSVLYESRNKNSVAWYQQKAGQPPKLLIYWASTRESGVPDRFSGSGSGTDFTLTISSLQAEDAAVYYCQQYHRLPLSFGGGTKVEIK

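Phage display of a naive human antibody library on the peptide gave the parent. The variants were designed computationally from a first round of random CDR variants and then made and measured. Several design methods are mixed in this list. The assay is AlphaSeq: two haploid yeast populations carry antibody and antigen on their surface. Binding brings cells together so that they mate, and sequencing counts the barcode pairs among the diploids. Scores were corrected for input abundance and mapped to Kd with protein pairs of known affinity run in the same pool. The assay was run in six technical replicates.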

Each variant's VH is given in full.
Variants here have more than six changes.
Each Kd is an estimate from the mating assay, the geometric mean of the replicates in which the pair was seen; lower is stronger.
An entry "no signal" has no value in the source: the pair was not observed among the diploids in any replicate. This suggests poor binding but is not conclusive.
The authors averaged sequences with at least three values out of six and counted those with two or fewer as poor binders.
A sequence measured in both rounds can read differently, since the two assays cover different ranges.
The parent sequence was in this pool as ten entries: three were never detected, three once, and four in most replicates, with averages from 2.2 nM to 240 nM.
Nonspecific signal, from three strains lacking the peptide, appeared in 1% of pairings of all heavy chain designs, centred on 120 nM (5% of these signals below 7.0 nM); values are not corrected for it. The control count says in how many pairings with the empty strains this scFv gave a signal.

For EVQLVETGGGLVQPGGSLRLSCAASGKDMEDYGISWVRQAPGKGPEWVSVIYADGSRAAYGDNFKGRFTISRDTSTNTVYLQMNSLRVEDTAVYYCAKGELAGTFDMWGQGTLVTVSS, the assay gave 110 nM (1 of 6 replicates; controls 0 of 18). Variant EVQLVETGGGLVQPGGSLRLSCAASGFDLNEYGISWVRQAPGKGPEWVSVIYADGRRTAYLDSVKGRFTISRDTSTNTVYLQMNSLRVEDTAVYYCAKGEAAGTFDMWGQGTLVTVSS gave 450 pM (6 of 6 replicates; controls 0 of 18). For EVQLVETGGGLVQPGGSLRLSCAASGFDLNEYGISWVRQAPGKGPEWVSVIYADGMRTAYADDVKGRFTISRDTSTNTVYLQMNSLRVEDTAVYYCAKGGVAGTFDVWGQGTLVTVSS, the assay gave 210 pM (6 of 6 replicates; controls 0 of 18). For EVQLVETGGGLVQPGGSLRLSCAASGFDLNEYGISWVRQAPGKGPEWVSVIYADGMRTAYADKVKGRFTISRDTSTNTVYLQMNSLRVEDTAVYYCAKGETAGTFDLWGQGTLVTVSS, the assay gave 950 pM (6 of 6 replicates; controls 0 of 18). With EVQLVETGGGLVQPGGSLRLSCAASGFDLDEYGISWVRQAPGKGPEWVSVIYADGRRTFYTDSVKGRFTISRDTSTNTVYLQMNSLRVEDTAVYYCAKGEVAGTFDVWGQGTLVTVSS the result was 690 pM (6 of 6 replicates; controls 0 of 18). For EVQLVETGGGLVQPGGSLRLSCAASGFDIEDYGISWVRQAPGKGPEWVSVIYADGKRSSYSNSFKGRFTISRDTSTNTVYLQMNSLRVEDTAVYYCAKGLMAGNMMVWGQGTLVTVSS, the assay gave no signal (0 of 6 replicates; controls 1 of 18).

With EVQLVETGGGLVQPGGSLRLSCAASGFDLNEYGISWVRQAPGKGPEWVSVIYADGRRKFYADNVKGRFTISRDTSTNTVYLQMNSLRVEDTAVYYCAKGENAGTFDVWGQGTLVTVSS the result was 5.5 nM (5 of 6 replicates; controls 0 of 18). With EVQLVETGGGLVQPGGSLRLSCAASGFDLDEYGISWVRQAPGKGPEWVSVIYADGKRTFYADSVKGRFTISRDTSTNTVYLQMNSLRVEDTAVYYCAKGETAGTFDVWGQGTLVTVSS the result was 710 pM (6 of 6 replicates; controls 0 of 18). For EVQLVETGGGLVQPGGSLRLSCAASGFDLNEYGISWVRQAPGKGPEWVSVIYADGVRTFYVDSVKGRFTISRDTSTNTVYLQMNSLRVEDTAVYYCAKGETAGTFDVWGQGTLVTVSS, the assay gave 2.0 nM (6 of 6 replicates; controls 2 of 18). Variant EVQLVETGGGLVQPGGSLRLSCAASGFGLGEYGISWVRQAPGKGPEWVSVIYADGHRTAYSTSVKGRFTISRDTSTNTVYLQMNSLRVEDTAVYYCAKGTIGGTFFQWGQGTLVTVSS gave 240 nM (2 of 6 replicates; controls 2 of 18). With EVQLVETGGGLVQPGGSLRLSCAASGFDIDEYGISWVRQAPGKGPEWVSVIYADGSRAVYTESVKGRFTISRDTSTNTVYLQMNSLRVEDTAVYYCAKGHNGNLLVGWGQGTLVTVSS the result was no signal (0 of 6 replicates; controls 0 of 18). With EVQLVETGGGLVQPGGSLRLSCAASGFDLNEYGISWVRQAPGKGPEWVSVIYADGRRTFYKDSVKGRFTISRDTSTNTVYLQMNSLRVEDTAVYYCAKGEIAGTFDQWGQGTLVTVSS the result was 240 pM (6 of 6 replicates; controls 0 of 18).

With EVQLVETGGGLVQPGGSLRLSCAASGFDLNEYGISWVRQAPGKGPEWVSVIYADGRRTFYADSVKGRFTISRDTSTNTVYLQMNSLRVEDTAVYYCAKGNTAGTFDAWGQGTLVTVSS the result was 190 pM (6 of 6 replicates; controls 0 of 18). Variant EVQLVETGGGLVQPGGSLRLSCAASGFDLNEYGISWVRQAPGKGPEWVSVIYADGQRTFYQDSVKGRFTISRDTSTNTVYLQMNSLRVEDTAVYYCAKGEIAGTFDQWGQGTLVTVSS showed 250 pM (6 of 6 replicates; controls 0 of 18). With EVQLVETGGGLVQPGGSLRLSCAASGFDLNEYGISWVRQAPGKGPEWVSVIYADGQRTAYADDVKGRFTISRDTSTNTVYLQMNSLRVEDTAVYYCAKGNEAGTFDVWGQGTLVTVSS the result was 1.0 nM (6 of 6 replicates; controls 0 of 18). For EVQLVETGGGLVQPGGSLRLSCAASGFKLGEYGISWVRQAPGKGPEWVSVIYADGQRKSYADSVKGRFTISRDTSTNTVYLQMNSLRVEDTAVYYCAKGQSSVYMTAWGQGTLVTVSS, the assay gave no signal (0 of 6 replicates; controls 2 of 18). Variant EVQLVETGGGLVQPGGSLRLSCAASGFDLNEYGISWVRQAPGKGPEWVSVIYADGRRTFYQDSVKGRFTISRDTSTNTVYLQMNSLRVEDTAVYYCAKGESAGTFDQWGQGTLVTVSS showed 510 pM (6 of 6 replicates; controls 0 of 18). With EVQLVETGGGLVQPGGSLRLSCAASGDGLKEYGISWVRQAPGKGPEWVSVIYADGMRESYVDDVKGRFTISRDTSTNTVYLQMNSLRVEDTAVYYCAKGQTGGTFNLWGQGTLVTVSS the result was 810 pM (1 of 6 replicates; controls 0 of 18).

Variant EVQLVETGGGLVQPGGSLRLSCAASGFDLNEYGISWVRQAPGKGPEWVSVIYADGVRTAYADSVKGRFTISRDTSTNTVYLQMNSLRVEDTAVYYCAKGNVAGTFDSWGQGTLVTVSS gave 70 pM (6 of 6 replicates; controls 0 of 18). With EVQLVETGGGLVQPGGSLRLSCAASGFDLDEYGISWVRQAPGKGPEWVSVIYADGSRTYYADSVKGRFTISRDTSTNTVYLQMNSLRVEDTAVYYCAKGENAGTFDVWGQGTLVTVSS the result was 1.6 nM (6 of 6 replicates; controls 0 of 18). For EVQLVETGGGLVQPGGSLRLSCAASGNNLDEYGISWVRQAPGKGPEWVSVIYADGQRSYYAQDVKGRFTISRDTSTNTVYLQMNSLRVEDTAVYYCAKGKTGDNAFIWGQGTLVTVSS, the assay gave no signal (0 of 6 replicates; controls 0 of 18).

A selection of 2 entries from above:

| VH | Kd | replicates with signal | control signals |
|---|---|---|---|
| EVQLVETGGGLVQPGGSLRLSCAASGFDLNEYGISWVRQAPGKGPEWVSVIYADGRRTFYADSVKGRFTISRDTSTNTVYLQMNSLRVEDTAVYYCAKGNTAGTFDAWGQGTLVTVSS | 190 pM | 6/6 | 0/18 |
| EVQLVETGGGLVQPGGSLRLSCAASGFDLDEYGISWVRQAPGKGPEWVSVIYADGSRTYYADSVKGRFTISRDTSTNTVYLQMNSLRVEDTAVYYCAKGENAGTFDVWGQGTLVTVSS | 1.6 nM | 6/6 | 0/18 |